# Measurements reported in ChEMBL document CHEMBL3351619 (J Med Chem, 2014).
# Tested on: CHO-K1
# Assay: Selectivity ratio of Ki for human 5-HT1A expressed in CHO-K1 cells to Ki for human 5-HT7 expressed in HEK-293 cells
# Type: cell-based
compound,measurement,value
O=C1Cc2ccccc2N1CC/C=C/CCN1CCc2ccccc2C1,Ratio Ki,> 1430
